miR122 inh: blocks miR-122 activity in Huh7 sensor cells; AID 602342; Huh7 miR-122 Renilla luciferase sensor, 48 h; neutral wells = 0, positive control = 100; 0.3% of 340,000 active; activation (reporter increase), % at 12.5 µM;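 active = mean replicate activation score at least 90 and every replicate individually at or above 90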;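 also: higher luciferase means less miR-122 activity so hits act as miR-122 inhibitors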
MITF TRPM1 HTS: activators of MITF-driven TRPM1 promoter activity in SK-MEL-5 cells; SK-MEL-5 TRPM1-promoter luciferase, 24 h; % of positive control, neutral wells = 0; activation, % at 12.5 µM; 0.75% of 300,000 active; AID 588334;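 active = mean activation of at least 80% with every replicate also reaching 80%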;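 also: 0% = neutral control wells and 100% = parthenolide positive control wells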
Wnt bcat act: activators of Wnt/beta-catenin signaling; AID 743398; 1.2% of 300,000 active; activation, % at 9.35 µM; Wnt/beta-catenin reporter cell assay, activator, plate reader; in the data active = activation above about 30%, passing the limit was not always enough;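 also: 0% = neutral control wells and 100% = positive control wells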
UUG fidelity: modulators of start codon recognition fidelity in yeast; S. cerevisiae UUG-firefly luciferase reporter, luminescence/redox ratio; activity score, % at 18.7 µM; hit rate 0.13% among 350,000; AID 602363;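 active = replicate mean at a twofold rise or more, about +100% in these data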;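 note: firefly luciferase made from a UUG start codon reports start codon fidelity; reporter light over untreated wells divided by growth signal over untreated wells; some hits fall short of that in this replicate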
TRPM1 prom inh: inhibitors of MITF-driven TRPM1 promoter in melanoma cells | 0.83% of 330,000 active | inhibition, % at 12.5 µM | AID 488899 | SK-MEL-5 TRPM1 promoter luciferase, 24 h;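 active = mean inhibition across replicates of 60% or more, whatever share of single replicates reaches that level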
PGC1a acetyl inh: PGC1a acetylation modulation, inhibitor mode | AID 651687 | U2OS PGC1a acetylation, AlphaScreen anti-acetyl-lysine; with virally co-expressed GCN5 acetyltransferase | 0.17% of 350,000 active | inhibition, % at 15.6 µM;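 active = every replicate shows inhibition of at least 40%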;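 also: 0% = neutral control wells and 100% = positive control wells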
Starred values were filed as active, the others as inactive; . = not tested or not shown; ! = not confirmed by another sample; [ ] = remark or other dose. Hits are enriched below; roughly 2.1% of the tested compounds scored in any of these assays.

SMILES	miR122 inh	MITF TRPM1 HTS	Wnt bcat act	UUG fidelity	TRPM1 prom inh	PGC1a acetyl inh
CC=Cc1ccc2n(c1=O)C[C@H]1[C@H](CO)[C@@H](C(=O)NCC3CC3)N(Cc3cccnc3)[C@@H]21 (mixture of isomers)	-5[16.7 µM]	.	.	.	.	.
C[C@@H]1CN([C@H](C)CO)C(=O)c2cc(-c3ccccc3)cnc2O[C@@H]1CN(C)C(=O)c1ccccc1F	.	.	.	3	.	-6
Clc1cccc(CNc2ccn3nc(-c4ccco4)cc3n2)c1	8	.	-2	-1	.	-1
Clc1cccc(CNc2ccn3nc(-c4cccs4)cc3n2)c1	-1	.	49*	-26	.	-11
COCCCNC(=O)Cc1c(C)c2c(cc(C)c3c(C(C)(C)C)coc32)oc1=O	90*	-15	-5	-11	15	.
COCCNC(=O)Cc1c(C)c2c(cc(C)c3c(C)coc32)oc1=O	-8	3	1	4	-1	5
C[C@@H]1CCCCO[C@@H](CN(C)Cc2ccc(Cl)c(Cl)c2)[C@@H](C)CN([C@@H](C)CO)C(=O)c2cc(NC(=O)C3CCCCC3)ccc2O1	1[16.7 µM]	.	.	16	.	-2
COc1ccc2nc3ccccc3nc2c1	54	93*	-2	-18	-82	9
COc1ccc(-c2nc3ccccc3nc2-c2ccccc2)cc1	9	-8	.	-8	10	8
CC(C)Oc1ccc(C(CCN)C2CCCCC2)cc1 (stereo not given)	-31	-87	-3	7	88*	-13
O=C(c1cc(-c2cccc(Cl)c2)on1)N1CCN(c2ccccc2)CC1	.	2	9	-7	-3	.
O=C(c1cc(-c2ccc(Cl)c(Cl)c2)on1)N1CCCCC1	-1	104*	.	2	-95	-3
O=C(c1cc(-c2cccc(O)c2)on1)N1CCOCC1	.	.	45*	-66	.	.
O=C(c1cc(-c2ccc(Cl)cc2)on1)N1CCCC1	-3	23	-1	-27	-24	.
O=C(c1cc(-c2cccc(O)c2)on1)N1CCCCCC1	-6	93*	37*	-39	-94	-6
O=C(c1cc(-c2ccccc2)on1)N1CCCC1	-2	80	.	-25	-70	-3
O=C(c1cc(-c2cccc(Cl)c2)on1)N1CCCC1	2	35	40*	-1	-38	-12
CNC[C@H]1OCCCC[C@H](C)Oc2ccc(NS(=O)(=O)c3ccc(OC)cc3)cc2C(=O)N([C@@H](C)CO)C[C@H]1C	-1[16.7 µM]	.	.	18	.	0
C[C@@H]1CN([C@H](C)CO)S(=O)(=O)c2ccc(C3=CCCCC3)cc2O[C@H]1CN(C)C(=O)C1CCOCC1	3[16.7 µM]	.	.	.	.	1
CCOC(=O)N/C(N)=N/c1nc2ccccc2s1	-11	.	56*	-12	-63	0
CCOC(=O)C(=NC(C)C)NNc1cc(Cl)ccc1Cl	.	-9	40*	.	5	.
Brc1ccccc1-c1nnc(COc2cccc3cccnc23)o1	5	7	.	.	-7	-9
Clc1ccc(Cc2nnc(-c3ccccc3Br)o2)cc1	-5	50	1	-24	-50	5
Clc1ccccc1OCc1nnc(-c2ccccc2Br)o1	5	99*	.	-6	-107	-17
N#Cc1ccccc1OCc1nnc(-c2ccccc2Br)o1	-1	159*	29	-4	-145	-12

Next structures follow:
SMILES	miR122 inh	MITF TRPM1 HTS	Wnt bcat act	UUG fidelity	TRPM1 prom inh	PGC1a acetyl inh
O=c1c(Cl)c(Cl)cnn1Cc1nnc(-c2ccccc2Br)o1	.	-93	-3	.	95*	.
C[C@@H]1CN([C@H](C)CO)C(=O)c2cccc(NS(=O)(=O)c3ccc(Cl)cc3)c2O[C@H]1CN(C)C(=O)Nc1ccccc1	-1[16.7 µM]	.	.	3	.	-18
O=C(Nc1nc(-c2ccccc2)cs1)c1ccco1	-6	.	43*	-6	-55	-3
O=C(Nc1scc(-c2ccccc2)c1C(=O)O)c1ccco1	1	13	10	-12	-13	7
COc1ccccc1Nc1nc(-c2sc(NC(=O)c3ccco3)nc2C)cs1	.	-48	-3	-10	46	.
COC(=O)c1c(-c2ccc(F)cc2)csc1NC(=O)c1ccco1	-4	118*	.	.	-109	-6
COc1cccc(N(C(=O)c2ccco2)c2nc(-c3sc(NC(=O)c4ccco4)nc3C)cs2)c1	1	-73	-15	-13	73*	-1
CCOc1ccc(-c2csc(NC(=O)c3ccco3)n2)cc1	-5	.	3	-5	-54	.
COc1ccc(-c2csc(NC(=O)c3ccco3)n2)cc1	1	83*	18	.	-80	-6
O=C(NC[C@H]1CC[C@@H]2[C@@H](CN2Cc2cc(-c3ccccc3)on2)O1)c1ccc2c(c1)OCO2	.	.	.	.	.	-5
CN(C(=O)c1ccco1)c1nc(-c2ccccc2)cs1	-3	130*	19	-27	-132	6
Cc1cc(NC(=O)c2ccco2)sc1C	-1	104*	62*	1	-99	-4
COc1ccc(-c2nnc(NC(=O)c3ccco3)s2)cc1	2	32	13	-31	-32	.
Cc1nnc(NC(=O)c2ccco2)s1	3	1	-3	4	1	5
COCCN(C(=O)c1ccco1)c1nc(-c2ccccc2)cs1	-8	6	1	-5	-5	11
O=C(Nc1nnc(C23CC4CC(CC(C4)C2)C3)s1)c1ccco1	0	78	41*!	-13	-73	-1
COc1cccc(-c2nnc(NC(=O)c3ccco3)s2)c1	3	58	35*	-15	-53	1
Cc1ccc(-c2csc(NC(=O)c3ccco3)n2)cc1C	-4	.	41*	-16	-67	-5
NC(=O)c1cc(Cc2ccccc2)sc1NC(=O)c1ccco1	-8	118*	27	-1	-109	1
CC(OC(=O)c1ccco1)C(=O)Nc1nc(-c2ccccc2)cs1 (stereo not given)	.	89*	7	5	-83	2
Cc1ccc(-c2csc(NC(=O)c3c(C)noc3C)n2)cc1C	.	44	-4	-12	-33	.
Cc1ccc(Cl)cc1Nc1nc(-c2sc(NC(=O)c3ccco3)nc2C)cs1	8	-66	-9	-23	68*	-21
O=C(Nc1nnc(Cc2ccccc2)s1)c1ccco1	2	49	25	-13	-46	1
CC(C)NC(=O)N(C)C[C@H]1Oc2ccc(NC(=O)CCCCCC(=O)Nc3ccccc3N)cc2CC(=O)N([C@H](C)CO)C[C@H]1C	-2[16.7 µM]	.	.	-3	.	12
Cc1ccc(S(=O)(=O)N(C)C[C@H]2Oc3c(NC(=O)C4CCCCC4)cccc3C(=O)N([C@@H](C)CO)C[C@@H]2C)cc1	31[16.7 µM]	.	.	34	.	.
O=C(Nc1cc(-c2ccccc2)cs1)c1ccco1	8	110*	44*	-24	-111	2
Cc1ccc(C(=O)/C=C/Nc2cccc([N+](=O)[O-])c2)o1	3	85*	.	-8	-78	14
COc1ccc(C2c3ccc4ccccc4c3Oc3ncn(CCCN(C)C)c(=N)c32)cc1 (stereo not given)	-16	-99	0	-11	101*	-23

Exported with bars between the fields: part of the list above
structure | miR122 inh | MITF TRPM1 HTS | Wnt bcat act | UUG fidelity | TRPM1 prom inh | PGC1a acetyl inh
O=C(Nc1cc(-c2ccccc2)cs1)c1ccco1 | 8 | 110* | 44* | -24 | -111 | 2
O=c1c(Cl)c(Cl)cnn1Cc1nnc(-c2ccccc2Br)o1 | . | -93 | -3 | . | 95* | .
COc1ccc(-c2csc(NC(=O)c3ccco3)n2)cc1 | 1 | 83* | 18 | . | -80 | -6
CC(C)NC(=O)N(C)C[C@H]1Oc2ccc(NC(=O)CCCCCC(=O)Nc3ccccc3N)cc2CC(=O)N([C@H](C)CO)C[C@H]1C | -2[16.7 µM] | . | . | -3 | . | 12
Cc1ccc(C(=O)/C=C/Nc2cccc([N+](=O)[O-])c2)o1 | 3 | 85* | . | -8 | -78 | 14
COc1cccc(-c2nnc(NC(=O)c3ccco3)s2)c1 | 3 | 58 | 35* | -15 | -53 | 1

Screens from PubChem.
